{
  "source": "patent US11607419B2",
  "about": "“Inhibitors of RAC1 and uses thereof for inducing bronchodilatation” (INSTITUT NATIONAL DE LA SANTE ET DE LA RECHERCHE MEDICALE …, priority 2017, dated 2023)",
  "key": {"[1]": {"system": "Rac1-dependent ruffle formation in NIH3T3 cells", "assay": "Rac activator-induced membrane ruffling (actin staining) in fibroblasts", "format": "cell-based", "conditions": "added 1 h before Rac activation", "procedure": "Cell culture, transfection and actin staining. NIH3T3 cells grew up in DMEM (Gibco; Invitrogen) containing 10% foetal bovine serum, 100 units/mL penicillin and 100 μg/mL streptomycin at 37° C. and 5% CO2. The culture medium was changed every 72 hours.\nAfter treatments, fibroblasts were fixed with 4% paraformaldehyde in PBS, permeabilized in PBS 0.5% Triton X-100, and incubated with 130 μg/mL of FITC-conjugated phalloidin (Sigma) to visualize F-actin. After staining, images were captured by a fluorescence microscope (Nikon). The actin cytoskeleton organization was analyzed to observe Rac1-dependent ruffle formation."}, "[2]": {"system": "3T3 cells migration", "assay": "Unidirectional cell migration", "format": "cell-based", "procedure": "Unidirectional cell migration. Cells (1000/well) were seeded in a 96 well plate with […] fibronectin stripes (CytooPlates Motility, CYTOO) in medium with 1% SVF and allowed to spread for 4 hours before capturing time-lapse images for 24 hours (image/10 minutes) on a Widefield Leica DMI 6000B drove with Metamorph software. Cells speed was measured with ImageJ software."}},
  "data": [
    {"smiles": "CCN(CC)CCCC(C)Nc1nc(C)cc(Nc2ccc3nc(C)cc(N)c3c2)n1", "note": "(centres unmarked) [NSC23766, reference compound]", "values": [
      {"measurement": "efficiency of Rac activator to induce ruffle", "setting": "[1]", "value": "strongly decreased"},
      {"measurement": "migration rate of the cells", "setting": "[2]", "value": "slow down"}
    ]}
  ]
}
